## AlphaSeq binding of Ab-91 heavy chain variants to a spike HR2 peptide

Source: Engelhart et al. 2022 (doi:10.1038/s41597-022-01779-4), MIT Lincoln Laboratory and A-Alpha Bio; data file from the FLAb repository.

The target is the same throughout: PDVDLGDISGINAS, from the HR2 region of SARS-CoV-2 spike.

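The starting antibody came from a phage panning campaign against this peptide. The library (AAYL51) carries one to three amino acid substitutions per variant, with no insertions or deletions. The assay is AlphaSeq: two haploid yeast populations carry antibody and antigen on their surface. Pairs that bind mate more often; barcode pairs of the diploids are counted by sequencing. Scores were corrected for input abundance and mapped to Kd with protein pairs of known affinity run in the same pool. Mating was done three times.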

The variants keep the light chain, the linker and the frameworks of Ab-91 (scFv order VL, a (GGGGS)3 linker, VH).
VL: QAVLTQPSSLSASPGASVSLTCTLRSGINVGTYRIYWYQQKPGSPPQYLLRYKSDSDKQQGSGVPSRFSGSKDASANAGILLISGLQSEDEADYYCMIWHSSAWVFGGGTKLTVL
VH: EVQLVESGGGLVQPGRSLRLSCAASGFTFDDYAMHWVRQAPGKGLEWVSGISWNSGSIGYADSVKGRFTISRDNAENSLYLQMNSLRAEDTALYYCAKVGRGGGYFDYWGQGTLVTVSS

Sequences are complete VH domains.
This list gathers variants with a substitution at D107 (VH, numbered from residue 1).
Each Kd is an estimate from the mating assay, the geometric mean of the replicates in which the pair was seen; lower is stronger.
A pair that was not seen in any replicate is written "not detected"; this usually means weak binding, but a binder can also be missed.
As a blank, each scFv also met three strains without target: over library AAYL51, 21% of these pairings were detected, typically at 34 µM and seldom below 1.8 µM.
In this assay the parent's reference entry averaged 72 nM; its copy inside this library read 7.5 nM.

| VH | Kd | replicates with signal |
|---|---|---|
| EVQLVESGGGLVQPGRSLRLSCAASGFTFDSYAMHWVRQAPGKGLEWVSGISWNSGSIGYADSVKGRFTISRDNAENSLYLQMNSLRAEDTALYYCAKVGRGGGTFLYWGQGTLVTVSS | 89 nM | 3/3 |
| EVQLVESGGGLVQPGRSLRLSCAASGFTFDDYAMHWVRQAPGKGLEWVSGNSWNYGSIGYADSVKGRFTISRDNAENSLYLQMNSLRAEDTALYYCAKVGRGGGYFVYWGQGTLVTVSS | not detected | 0/3 |
| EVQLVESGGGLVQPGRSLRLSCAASGFTFDDYAMHWVRQAPGKGLEWVSGISWYSGSIGYADSVKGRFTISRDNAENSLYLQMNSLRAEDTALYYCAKVGRGGGYFIYWGQGTLVTVSS | not detected | 0/3 |
| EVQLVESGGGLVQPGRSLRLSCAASGFTFDDYAMHWVRQAPGKGLEWVSGISWNSGSIGYADDVFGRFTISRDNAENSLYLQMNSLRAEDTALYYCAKVGRGGGYFHYWGQGTLVTVSS | not detected | 0/3 |
| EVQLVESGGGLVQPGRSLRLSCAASAFTFDDYAMHWVRQAPGKGLEWVSGISWHSGSIGYADSVKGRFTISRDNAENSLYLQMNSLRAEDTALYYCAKVGRGGGYFMYWGQGTLVTVSS | 70 µM | 1/3 |
| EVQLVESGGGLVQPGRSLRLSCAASGFTFDDYAMHWVRQAPGKGLEWVSEISWNSGSNGYADSVKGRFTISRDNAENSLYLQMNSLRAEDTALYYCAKVGRGGGYFQYWGQGTLVTVSS | 24 µM | 1/3 |
| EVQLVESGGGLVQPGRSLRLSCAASGFTFDDYAMHWVRQAPGKGLEWVSGIFWNSGSIGYAISVKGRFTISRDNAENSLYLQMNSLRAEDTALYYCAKVGRGGGYFVYWGQGTLVTVSS | not detected | 0/3 |
| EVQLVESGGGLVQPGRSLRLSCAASGNTFDDYAMHWVRQAPGKGLEWVSGISWNSGAIGYADSVKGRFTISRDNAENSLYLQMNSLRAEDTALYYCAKVGRGGGYFEYWGQGTLVTVSS | 9.9 µM | 1/3 |
| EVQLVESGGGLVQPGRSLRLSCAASGNTFDDYAMHWVRQAPGKGLEWVSGISWNSGSIGYADSVKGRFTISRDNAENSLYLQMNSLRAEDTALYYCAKEGRGGGYFCYWGQGTLVTVSS | not detected | 0/3 |
| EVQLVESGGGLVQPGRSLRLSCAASRFTFDDYAMHWVRQAPGKGLEWVSGISWVSGSIGYADSVKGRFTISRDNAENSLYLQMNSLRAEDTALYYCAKVGRGGGYFYYWGQGTLVTVSS | not detected | 0/3 |
| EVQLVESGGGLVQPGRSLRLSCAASGFTFDDYAMHWVRQAPGKGLEWVSGISWNSGSIGYADSVKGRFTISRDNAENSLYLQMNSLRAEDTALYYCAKVGRGGGYFIYWGQGTLVTVSS | not detected | 0/3 |
| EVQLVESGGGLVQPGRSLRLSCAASGFTFDDYAMHWVRQAPGKGLEWVSGISWISGSIGYLDSVKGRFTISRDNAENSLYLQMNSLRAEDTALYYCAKVGRGGGYFNYWGQGTLVTVSS | 150 µM | 2/3 |
| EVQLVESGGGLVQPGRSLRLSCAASGLTFDYYAMHWVRQAPGKGLEWVSGISWNSGSIGYADSVKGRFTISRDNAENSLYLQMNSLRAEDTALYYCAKVGRGGGYFWYWGQGTLVTVSS | not detected | 0/3 |
| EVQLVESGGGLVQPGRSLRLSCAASGFTFDDYARHWVRQAPGKGLEWVSGISWNSGSIGYADSVKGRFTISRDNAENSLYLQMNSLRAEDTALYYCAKVGRGKGYFCYWGQGTLVTVSS | not detected | 0/3 |
| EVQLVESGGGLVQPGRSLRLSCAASGFTFDDYAMHWVRQAPGKGLEWVSGISWNSGSIGYIDSVKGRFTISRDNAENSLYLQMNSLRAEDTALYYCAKVGRHGGYFAYWGQGTLVTVSS | 6.5 µM | 1/3 |
| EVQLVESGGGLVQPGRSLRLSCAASGFTFDDYAMHWVRQAPGKGLEWVSGISWNSGSITYADSIKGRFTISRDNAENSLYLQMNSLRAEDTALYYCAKVGRGGGYFSYWGQGTLVTVSS | 57 µM | 1/3 |
| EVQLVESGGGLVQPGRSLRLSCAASAFTFDDYAMHWVRQAPGKGLEWVSGISWHSGSIGYADSVKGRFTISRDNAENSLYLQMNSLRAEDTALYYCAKVGRGGGYFCYWGQGTLVTVSS | 14 µM | 1/3 |
| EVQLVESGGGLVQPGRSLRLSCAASGFTFDDYAMHWVRQAPGKGLEWVSGISWNSGSIGYADSVKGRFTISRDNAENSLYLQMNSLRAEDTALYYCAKPGRGGGIFPYWGQGTLVTVSS | 2.6 nM | 3/3 |
| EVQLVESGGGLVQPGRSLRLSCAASGFTFDDYAMHWVRQAPGKGLEWVSGISWISGSIGYADSVKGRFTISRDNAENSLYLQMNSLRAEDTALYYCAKVGRGGGYFLYWGQGTLVTVSS | 61 µM | 2/3 |
| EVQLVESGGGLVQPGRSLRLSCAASGFTFDDYAMHWVRQAPGKGLEWVSGISWNSGSIGYADVVKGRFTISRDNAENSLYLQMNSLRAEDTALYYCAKVGRGGGCFMYWGQGTLVTVSS | 5.2 nM | 3/3 |

Top 2 of the variants detected in all replicates, tightest first:

VH	Kd	replicates with signal
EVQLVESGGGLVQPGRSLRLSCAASGFTFDDYAMHWVRQAPGKGLEWVSGISWNSGSIGYADSVKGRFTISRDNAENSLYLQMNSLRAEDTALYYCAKPGRGGGIFPYWGQGTLVTVSS	2.6 nM	3/3
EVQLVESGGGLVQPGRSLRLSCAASGFTFDDYAMHWVRQAPGKGLEWVSGISWNSGSIGYADVVKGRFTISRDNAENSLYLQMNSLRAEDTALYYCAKVGRGGGCFMYWGQGTLVTVSS	5.2 nM	3/3